A selection: hits, their analogues and other compounds. The true share with any hit is near 2.8%.
PglD inh = PglD (C. jejuni) enzyme inhibition. hit rate 0.098% among 360,000. purified PglD enzyme, DTNB colorimetric CoA detection. AID 602405. inhibition, % at 12.5 µM; in the data active = inhibition above about 16%, passing the limit was not always enough; inconclusive = no clear call, values can overlap the other calls
MITF act = increases MITF-driven TRPM1 promoter luciferase signal | activation, % at 12.5 µM | hit rate 0.75% among 300,000 | AID 588334 | SK-MEL-5 TRPM1-promoter luciferase, 24 h; % of positive control, neutral wells = 0;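 active = mean activation of at least 80% with every replicate also reaching 80%; inconclusive = mean reaches 80% but some replicate falls short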;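 note: 0% = neutral control wells and 100% = parthenolide positive control wells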
esBAF inh = blocks esBAF chromatin remodeling in mouse ES cells. AID 602393. hit rate 2% among 350,000. Bmi1-luciferase knock-in reporter, 24 h; 100% = twice the neutral-well signal. reporter increase, % at 12.5 µM; in the data active = activation above about 40%; inconclusive = no clear call, values can overlap the other calls;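 note: 0% = median of the plate's neutral control wells and 100% = double that signal; a rise in the Bmi1 reporter signal indicates esBAF inhibition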
Wnt bcat act = activates Wnt/beta-catenin signaling in a reporter cell assay; hit rate 1.2% among 300,000; activation, % at 9.35 µM; activator, plate reader; in the data active = activation above about 30%, passing the limit was not always enough; inconclusive = no clear call, values can overlap the other calls;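 note: 0% = neutral control wells and 100% = positive control wells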
Yeast UUG start = yeast start codon fidelity modulation; activity score, % at 18.7 µM; actives 0.13% (n = 350,000); S. cerevisiae UUG-firefly luciferase reporter, luminescence/redox ratio; AID 602363;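 active means replicate mean at a twofold rise or more, about +100% in these data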;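 further: firefly luciferase made from a UUG start codon reports start codon fidelity; reporter light over untreated wells divided by growth signal over untreated wells; some hits fall short of that in this replicate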
miR-122 sensor = miR-122 inhibition in Huh7 cells | Huh7 miR-122 Renilla luciferase sensor, 48 h; neutral wells = 0, positive control = 100 | activation (reporter increase), % at 12.5 µM | hit rate 0.3% among 340,000 | AID 602342;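 active = mean replicate activation score at least 90 and every replicate individually at or above 90; inconclusive = only one of the two criteria met; inactive = neither criterion met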;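 note: higher luciferase means less miR-122 activity so hits act as miR-122 inhibitors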
Active calls of the source: *; ? = inconclusive; . = no result given; [ ] = remark or other dose.

No. | PglD inh | MITF act | esBAF inh | Wnt bcat act | Yeast UUG start | miR-122 sensor | molecule
1 | 1 | . | -10 | . | -13 | -2[16.7 µM] | CC(C)NC(=O)N(C)C[C@H]1OCCCC[C@H](C)Oc2ccc(NC(=O)Nc3cccc4ccccc34)cc2C(=O)N([C@@H](C)CO)C[C@H]1C
2 | . | 56 | . | 69* | . | . | CC(C)N(Cc1nccn1C)C(=O)CCc1nnc(CCCc2ccccc2)o1
3 | -2 | 8 | 11 | 1 | -13 | . | CCOc1ccc2[nH]c3c(NCCC(C)C)ncnc3c2c1
4 | . | . | . | 52* | . | . | CCCOc1ncnc2c1[nH]c1ccc(OC)cc12
5 | . | 5 | . | 31* | . | . | COc1ccc2[nH]c3c(NCCCOC(C)C)ncnc3c2c1
6 | -2 | . | 25 | 15 | -1 | -3 | CCCOc1ncnc2c1[nH]c1ccccc12
7 | 1 | . | . | 43* | -11 | -16 | CCCCOc1ncnc2c1[nH]c1ccc(C)cc12
8 | 1 | . | -1 | . | -26 | -3[16.7 µM] | CO[C@H]1CN(C)C(=O)c2ccc(NC(C)=O)cc2OC[C@H](C)N(Cc2ccccn2)C[C@H]1C
9 | 6 | . | 5 | -2 | 3 | 74 | CCOc1ccc(NS(=O)(=O)c2cc3c(cc2C)N(C)CCO3)cc1
10 | -2 | . | 3 | -3 | 10 | 95* | COc1ccc(NS(=O)(=O)c2cc3c(cc2C)N(C)CCO3)cc1
11 | 3 | . | -3 | -3 | -10 | 101* | COc1cc(NS(=O)(=O)c2cc3c(cc2C)NC(=O)CO3)cc(OC)c1
12 | 2 | 5 | 40 | 3 | -8 | -3 | CN(Cc1ccccc1)C(=O)c1[nH]cnc1C(=O)Nc1ccc(Cl)cc1
13 | -2 | 47 | 45* | 15 | 22 | 8 | CN(Cc1ccccc1)C(=O)c1[nH]cnc1C(=O)Nc1cccc(Cl)c1
14 | 0 | . | 0 | . | 1 | 23[16.7 µM] | COc1ccccc1S(=O)(=O)N1CC[C@@H]2[C@H]1c1cc(-c3ccc(F)cc3)ccc1N(C)[C@H]2CO
15 | -11 | -4 | -2 | 0 | -10 | -9 | Cc1ccccc1-n1c(-c2ccc(=O)[nH]n2)n[nH]c1=S
16 | -1 | . | 7 | 34* | -15 | 0 | CC(C)(C)c1cc(-c2n[nH]c(=S)n2-c2ccccc2F)n[nH]1
17 | -3 | . | 1 | . | . | -2[16.7 µM] | CCN1[C@@H]2c3ccc(-c4ccccc4OC)c(=O)n3C[C@@H]2[C@@H](CO)[C@@H]1C(=O)NCC1CC1
18 | 7 | 60 | ? | ? | -26 | -11 | CN(C)c1ccc(N=Nc2cccc3ccoc23)cc1
19 | -3 | 49 | -8 | 52* | -40 | -4 | CN(C)c1ccc(N=Nc2cccc(F)c2)cc1
20 | -4 | . | 3 | . | 5 | 14[16.7 µM] | C[C@H]1CN([C@@H](C)CO)S(=O)(=O)c2ccc(-c3ccc(F)cc3)cc2O[C@@H]1CN(C)S(C)(=O)=O

Records listed so far shown as hits in esBAF inh:
No. | PglD inh | MITF act | esBAF inh | Wnt bcat act | Yeast UUG start | miR-122 sensor | molecule
13 | -2 | 47 | 45* | 15 | 22 | 8 | CN(Cc1ccccc1)C(=O)c1[nH]cnc1C(=O)Nc1cccc(Cl)c1

Further entries follow:
No. | PglD inh | MITF act | esBAF inh | Wnt bcat act | Yeast UUG start | miR-122 sensor | molecule
21 | . | 1 | -3 | 56* | . | 3 | CC1(C)CC(NC(=O)c2ccccn2)CC(C)(C)N1O
22 | -2 | . | -1 | . | -1 | . | CCCNC(=O)N[C@@H]1C=C[C@H](CC(=O)N2CCN(C)CC2)O[C@H]1CO
23 | 0 | ? | . | 37* | -33 | -1 | Cc1cc(C(=O)COC(=O)c2cccc(S(=O)(=O)N(C)C)c2)c(C)n1CC1CCCO1 (centres undefined)
24 | 5 | 38 | 66* | 15 | -8 | 0 | O=c1/c(=C\c2cccnc2)sc2nc3ccccc3n12
25 | 1 | . | 1 | . | 9 | 5[16.7 µM] | CO[C@H]1CN(C)C(=O)c2cc(NC(=O)C3CC3)ccc2OC[C@H](C)N(Cc2ccncc2)C[C@@H]1C
26 | -1 | 67 | 51* | . | -16 | 0 | CCC(=O)Nc1cccc(C(=O)OCC(=O)c2ccccc2Cl)c1
27 | 0 | 5 | 9 | 6 | -11 | 11 | CC(=O)Nc1cccc(C(=O)OCC(=O)NC(=O)c2ccccc2)c1
28 | . | 52 | . | 47* | . | . | CC(=O)Nc1cccc(C(=O)OCC(=O)c2ccccc2Cl)c1
29 | 0 | 17 | 9 | . | -7 | -3 | CCC(=O)Nc1cccc(C(=O)c2ccccc2)c1
30 | . | 33 | . | 0 | . | 0 | O=C(Nc1cccc2ccccc12)c1cn(-c2ccccc2)nc1-c1cccs1
31 | . | 59 | 58* | 29 | . | -2 | O=C(Nc1cccnc1)c1cn(-c2ccccc2)nc1-c1cccs1
32 | -2 | . | 10 | . | -5 | 1[16.7 µM] | Cc1ccc(S(=O)(=O)N(C)C[C@H]2Oc3c(NC(=O)Nc4ccc(F)cc4)cccc3C(=O)N([C@@H](C)CO)C[C@H]2C)cc1
33 | 0 | 6 | -8 | -1 | -13 | 8 | CNC(=S)Nc1ccc([N+](=O)[O-])cc1C
34 | -2 | 124* | . | 22 | -8 | 0 | Cc1cc([N+](=O)[O-])ccc1NC(=O)c1csc(C)c1C
35 | -3 | . | 3 | . | 10 | 11[16.7 µM] | CCCNC(=O)C[C@H]1CC[C@H]2[C@H](COc3ccc(NC(=O)c4ccccc4)cc3C(=O)N2C)O1
36 | 3 | . | 6 | . | 6 | -2[16.7 µM] | O=C([C@H]1[C@H](CO)[C@H]2Cn3c(ccc(-c4ccccc4F)c3=O)[C@@H]1N2C(=O)C1CC1)N1CCCCC1
37 | . | 39 | . | . | . | -6 | Fc1ccc(Cn2ccc(-c3cnc(-c4ccccc4)s3)n2)cc1
38 | -3 | 57 | 79* | . | -18 | -10 | Cc1ccc(Cn2ccc(-c3cnc(-c4ccccc4)s3)n2)cc1
39 | -5 | 98* | . | 45* | -5 | -7 | O=S(=O)(c1ccccc1)n1ccc(-c2cnc(-c3ccccc3)s2)n1
40 | . | 3 | 0 | 40* | . | -4 | Cc1ccc(NC(=O)CN(C)CC(=O)NC2CCCc3ccccc32)cc1 (centres undefined)

A different layout for some results above:
# | SMILES | PglD inh | MITF act | esBAF inh | Wnt bcat act | Yeast UUG start | miR-122 sensor
34 | Cc1cc([N+](=O)[O-])ccc1NC(=O)c1csc(C)c1C | -2 | 124* | . | 22 | -8 | 0
35 | CCCNC(=O)C[C@H]1CC[C@H]2[C@H](COc3ccc(NC(=O)c4ccccc4)cc3C(=O)N2C)O1 | -3 | . | 3 | . | 10 | 11[16.7 µM]
36 | O=C([C@H]1[C@H](CO)[C@H]2Cn3c(ccc(-c4ccccc4F)c3=O)[C@@H]1N2C(=O)C1CC1)N1CCCCC1 | 3 | . | 6 | . | 6 | -2[16.7 µM]
37 | Fc1ccc(Cn2ccc(-c3cnc(-c4ccccc4)s3)n2)cc1 | . | 39 | . | . | . | -6

Next records.
No. | PglD inh | MITF act | esBAF inh | Wnt bcat act | Yeast UUG start | miR-122 sensor | molecule
41 | . | . | -8 | . | 5 | -2[16.7 µM] | O=C(CCN1CCCCC1)NCC[C@H]1CC[C@@H](NC(=O)Cc2cccnc2)[C@H](CO)O1
42 | 1 | . | 6 | . | -11 | 7[16.7 µM] | C[C@H]1CN([C@@H](C)CO)C(=O)c2cc(N(C)C)ccc2O[C@@H]1CN(C)Cc1ccc(-c2ccccc2)cc1
43 | 4 | . | -13 | . | -11 | -11[16.7 µM] | C[C@H](CO)N1C[C@H](C)[C@H](CN(C)Cc2ccccn2)Oc2ncc(C#Cc3cccc(F)c3)cc2C1=O
44 | . | 34 | 62* | . | . | 3 | COc1ccc(C)cc1NCc1cc(=O)oc2cc(-c3ccccc3)c(O)cc12
45 | 6 | 9 | 2 | -3 | -20 | 100* | O=C(CN(C1CCCCC1)S(=O)(=O)c1ccc(Cl)cc1)NCc1cccnc1
46 | -3 | -4 | -5 | . | -16 | . | O=C(CN(C1CCCCC1)S(=O)(=O)c1ccccc1)NCc1cccnc1
47 | -3 | . | -2 | . | -3 | 4[16.7 µM] | O=C(c1cnccn1)N1CC[C@@H]2[C@@H](CO)Nc3ccc(-c4cccc(F)c4)cc3[C@@H]21
48 | 1 | . | 3 | . | -5 | -4[16.7 µM] | O=C(C[C@H]1C[C@H]2c3cc(NC(=O)C4CCC4)ccc3O[C@H]2[C@@H](CO)O1)NCc1ccccc1
49 | -5 | 139* | ? | -3 | -28 | -3 | S=C(c1ccc(-c2cccc(Cl)c2)o1)N1CCOCC1
50 | . | 93* | . | 40* | . | . | S=C(c1ccc(-c2cccc(Cl)c2)o1)N1CCCCC1
51 | . | 24 | . | . | . | . | S=C(c1ccc(-c2cc(Cl)ccc2Cl)o1)N1CCCCC1
52 | -8 | 66 | 44* | 20 | -29 | 2 | Cc1cccc(NC(=O)CSc2nccn2Cc2ccco2)c1
